Measurements from patent US6933318B1, “Topical organic ectoparasiticidal formulations” (Eli Lilly and Company, priority 1999, dated 2005).

Test: Spreading of 14C zeta-cypermethrin from the dorsal midline of sheep in test vehicles
Type: in vivo
Conditions: back and perirenal fat, day 14
Method: The clipped areas were also swabbed. […] The quantity of zeta-cypermethrin in each sample was measured by liquid scintillation counting.

Question: Which “Tissue residues of zeta-cypermethrin” value does the source give for glyceryl tricaprylate/caprate here?
Answer: highest residue levels
